# AlphaSeq binding of Ab-14 light chain variants to a spike HR2 peptide

All variants were tested on one target, the spike HR2 peptide PDVDLGDISGINAS (SARS-CoV-2).

Parent: Ab-14, a human scFv built as VH, the linker GGGGSGGGGSGGGGS, VL. Only the CDRs of the light chain vary.
VH: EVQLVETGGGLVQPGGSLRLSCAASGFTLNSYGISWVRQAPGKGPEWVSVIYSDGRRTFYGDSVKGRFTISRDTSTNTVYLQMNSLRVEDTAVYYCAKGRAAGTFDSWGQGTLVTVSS
VL: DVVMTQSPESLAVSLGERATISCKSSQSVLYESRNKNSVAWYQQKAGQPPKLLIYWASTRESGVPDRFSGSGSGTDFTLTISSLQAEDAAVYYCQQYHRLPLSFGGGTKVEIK

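These sequences belong to a second round, designed from the earlier measurements on random variants of the parent. Their group label is 14L_Ctrl (Ctrl: baseline library sampled from a position-specific scoring matrix, with some repeated check sequences). Affinity was read by AlphaSeq, a pooled yeast mating assay with surface-displayed partners. Binding brings cells together so that they mate, and sequencing counts the barcode pairs among the diploids. Scores were corrected for input abundance and mapped to Kd with protein pairs of known affinity run in the same pool. The assay was run in six technical replicates.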

Positions count from residue 1 of the parent VL; Q27K puts K in place of Q.
Numbers give log10(Kd / nM), so 0 is 1 nM and 3 is 1 µM. Smaller is tighter.
Replicates are averaged; those with no signal do not enter the mean.
A pair that was not seen in that replicate is written "n.d."; this usually means weak binding, but a binder can also be missed.
Values of this round are not directly comparable with the first-round values of the same sequences.
In the paper, a design with two or fewer of six values counts as a poor binder.
Nonspecific signal, from three strains lacking the peptide, appeared in 4% of pairings of all light chain designs, centred on 2.64 (5% of these signals below 1.59); values are not corrected for it. The control count says in how many pairings with the empty strains this scFv gave a signal, with their mean in brackets.

| changes | log10 Kd (nM) by replicate | mean log10 Kd (nM) | empty controls |
|---|---|---|---|
| Q27K E32T W56K E61I | n.d. / n.d. / n.d. / n.d. / n.d. / n.d. | n.d. | 1/18 (2.78) |
| H98A | 2.89 / 1.83 / 2.70 / n.d. / 2.03 / 1.39 | 2.17 | 1/18 (2.72) |
| N35A S58Y | n.d. / n.d. / n.d. / 3.57 / n.d. / n.d. | 3.57 | 0/18 |
| Q27D N37D V39L W56E | 0.69 / 1.00 / 0.65 / 0.76 / 0.82 / 0.62 | 0.76 | 1/18 (2.32) |
| V29F | 1.86 / 1.28 / 1.95 / 2.01 / 0.91 / 1.22 | 1.54 | 1/18 (1.55) |
| V29I K36G W56D H98Q | -0.01 / 0.16 / -0.45 / -0.38 / -0.28 / 0.34 | -0.10 | 1/18 (1.37) |
| W56Q H98T | 1.68 / 1.50 / 1.86 / 1.43 / 1.73 / 1.83 | 1.67 | 0/18 |
| W56E Q96A H98S L100K | n.d. / 2.70 / n.d. / n.d. / n.d. / n.d. | 2.70 | 0/18 |
| S28D Y31L E32G Q96S | 1.77 / 1.64 / 1.32 / 2.47 / 2.59 / 2.40 | 2.03 | 0/18 |
| S26Q R34F | 1.65 / 0.69 / n.d. / 1.27 / n.d. / 1.29 | 1.23 | 0/18 |
| Y31W | n.d. / 2.70 / n.d. / n.d. / 3.36 / 2.58 | 2.88 | 1/18 (2.11) |
| S25R Q96T | n.d. / n.d. / n.d. / n.d. / 4.32 / n.d. | 4.32 | 0/18 |
| Y31Q E32D W56R L100N | n.d. / n.d. / n.d. / n.d. / n.d. / n.d. | n.d. | 0/18 |
| R34T W56H E61I R99E | 1.12 / 0.53 / 1.09 / 1.29 / 0.99 / 1.21 | 1.04 | 3/18 (2.49) |
| S25I R34S W56S T59S | 0.23 / 0.09 / 0.09 / 0.03 / 0.12 / 0.14 | 0.12 | 1/18 (3.28) |
| S25Y R34N K36S W56S | 0.48 / 0.20 / 0.16 / 0.42 / 0.48 / 0.51 | 0.38 | 2/18 (2.89) |
| Q27S Y31D R99Y | n.d. / n.d. / n.d. / n.d. / n.d. / n.d. | n.d. | 0/18 |
| E32P S58D E61L L102I | 2.06 / 1.60 / 1.77 / n.d. / 2.69 / 2.27 | 2.08 | 1/18 (2.49) |
| V29D S62Q | 0.85 / 1.75 / 1.48 / 0.85 / 0.80 / 1.19 | 1.15 | 1/18 (2.97) |
| L30S Y31P N35E W56Y | 1.46 / n.d. / 1.47 / 1.99 / 1.27 / 1.66 | 1.57 | 0/18 |
| S25I Y31E N35Y L102F S103F | 0.88 / 0.41 / 1.28 / 0.99 / 1.43 / 0.80 | 0.97 | 0/18 |
| S25V W56Y | 0.10 / -0.05 / 0.05 / 0.12 / -0.13 / 0.44 | 0.09 | 1/18 (3.05) |
| R34P T59V H98K | 1.70 / 1.19 / 1.35 / 1.84 / 3.04 / 1.99 | 1.85 | 0/18 |
| Y31G W56Q R99H L100V | 1.02 / 1.47 / 1.10 / 0.93 / 1.16 / 0.96 | 1.11 | 2/18 (2.39) |
| Y31F R34M | 2.09 / 1.16 / 1.29 / 1.13 / 1.91 / 1.79 | 1.56 | 1/18 (2.99) |
| E32M K36F H98T | n.d. / 0.98 / n.d. / n.d. / n.d. / n.d. | 0.98 | 0/18 |
| L30G V39C H98M | n.d. / n.d. / n.d. / n.d. / n.d. / n.d. | n.d. | 0/18 |
| E32H | n.d. / n.d. / n.d. / n.d. / n.d. / n.d. | n.d. | 1/18 (1.70) |
| W56A E61T | 2.60 / 2.20 / 1.62 / 3.28 / 2.18 / 3.13 | 2.50 | 0/18 |
| Q27L V29I R34F | n.d. / 1.67 / n.d. / 2.16 / 3.15 / 1.56 | 2.14 | 0/18 |
| S28P L30R R34S A57E T59E | n.d. / n.d. / n.d. / n.d. / n.d. / n.d. | n.d. | 0/18 |
| V29E K36F L100N | n.d. / n.d. / n.d. / n.d. / 2.69 / n.d. | 2.69 | 0/18 |
| Y31I S33E S62V Q96T H98Y | n.d. / n.d. / n.d. / n.d. / n.d. / n.d. | n.d. | 1/18 (1.63) |
| S25A S26M R34Y W56N R99L | 0.79 / 0.71 / 0.41 / 0.45 / 0.75 / 0.65 | 0.63 | 0/18 |
| S25I V29A Y31V S33D R99D P101S | n.d. / n.d. / n.d. / n.d. / n.d. / n.d. | n.d. | 0/18 |
| R34D W56N S62K | 0.30 / 0.48 / 0.04 / 0.60 / 0.59 / 0.59 | 0.43 | 0/18 |
| R34V K36S W56A L100M | 0.51 / 0.39 / 0.31 / 0.37 / 0.24 / 0.57 | 0.40 | 0/18 |
| S25R N37Q W56S Q95E | 1.96 / n.d. / 2.28 / n.d. / 2.58 / 3.19 | 2.50 | 2/18 (2.74) |
| Y31L E32Q R60Q | n.d. / n.d. / n.d. / n.d. / n.d. / n.d. | n.d. | 0/18 |
| Y31R S33D S103W | n.d. / 1.42 / 3.50 / 3.20 / n.d. / 2.04 | 2.54 | 1/18 (2.76) |
| W56N L102F | 0.19 / 0.09 / 0.00 / -0.19 / 0.14 / 0.00 | 0.04 | 0/18 |
| R34Q N35Y S58T Q95F | n.d. / n.d. / n.d. / 2.27 / n.d. / n.d. | 2.27 | 1/18 (1.91) |
| V29W N35Y | n.d. / n.d. / n.d. / 2.50 / n.d. / 2.91 | 2.71 | 1/18 (3.11) |
| K24M S25M S33W W56A T59K | 0.42 / 0.50 / 0.54 / 0.14 / 0.40 / 1.10 | 0.52 | 1/18 (2.63) |
| S28Y S33M | n.d. / n.d. / n.d. / n.d. / n.d. / n.d. | n.d. | 1/18 (1.87) |
| Y31G R34E | 0.72 / 1.49 / 1.06 / 1.21 / 0.62 / 0.95 | 1.01 | 2/18 (2.19) |
| S25L S26N N35M W56G | -0.47 / -0.37 / -0.25 / -0.48 / -0.59 / -0.02 | -0.36 | 1/18 (1.47) |
| R99G L102P | n.d. / n.d. / n.d. / n.d. / n.d. / n.d. | n.d. | 0/18 |

The last 5 entries again:

changes	log10 Kd (nM) by replicate	mean log10 Kd (nM)	empty controls
K24M S25M S33W W56A T59K	0.42 / 0.50 / 0.54 / 0.14 / 0.40 / 1.10	0.52	1/18 (2.63)
S28Y S33M	n.d. / n.d. / n.d. / n.d. / n.d. / n.d.	n.d.	1/18 (1.87)
Y31G R34E	0.72 / 1.49 / 1.06 / 1.21 / 0.62 / 0.95	1.01	2/18 (2.19)
S25L S26N N35M W56G	-0.47 / -0.37 / -0.25 / -0.48 / -0.59 / -0.02	-0.36	1/18 (1.47)
R99G L102P	n.d. / n.d. / n.d. / n.d. / n.d. / n.d.	n.d.	0/18

Data: MIT Lincoln Laboratory AlphaSeq set, Li et al. 2023, doi:10.1038/s41467-023-39022-2, as distributed in FLAb.